Results reported in PubChem BioAssay AID1476 (National Center for Advancing Translational Sciences (NCATS), 2009).
Values joined by “and” are separate entries in the source; they are usually repeats but may differ in a detail not shown here. Equal entries are not always repeated. The list shows a part of the results, in another mix than the full data. Results filed as inconclusive are left out. Active and inactive are the calls of the source. The call rests on the fitted dose curve; in most records, active means well fitted inhibition curve with a large enough effect; inconclusive means small, poorly fitted or top-dose-only effect, or effect the other way; inactive means flat fitted curve, though single readings scatter.

By UniProt entry, the sequences of proteins in these tests, tags left out. Residues count along the entry.
UniProt P25779, 123-467 limits assumed: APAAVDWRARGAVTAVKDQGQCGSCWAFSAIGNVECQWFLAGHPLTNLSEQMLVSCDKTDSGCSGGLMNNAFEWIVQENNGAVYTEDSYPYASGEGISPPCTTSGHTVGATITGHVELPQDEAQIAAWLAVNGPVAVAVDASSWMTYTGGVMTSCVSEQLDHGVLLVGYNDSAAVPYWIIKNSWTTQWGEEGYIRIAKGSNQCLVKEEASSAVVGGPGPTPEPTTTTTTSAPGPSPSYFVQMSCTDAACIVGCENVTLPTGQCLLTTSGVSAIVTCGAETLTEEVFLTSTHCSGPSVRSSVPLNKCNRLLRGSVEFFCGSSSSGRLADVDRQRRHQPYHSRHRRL

Target: Cruzipain (Trypanosoma cruzi) (UniProt P25779)
Test: qHTS Assay for Promiscuous and Specific Inhibitors of Cruzain (without detergent);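 further: plate controls were enzyme without inhibitor for no effect and buffer without enzyme for full effect; nearly all actives have a fitted effect of over 40% in size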
Conditions: purified cruzain, Z-FR-AMC fluorescence, no detergent

Compound	max response, negative = inhibition
CN(CCCl)CCCl	inactive: -0.438% and inactive: 6.04%
O=[N+]([O-])C(Cl)(Cl)Cl	inactive: -2.44%
